The values that follow come from publication PMC4380445.

The target in the assay is mouse monoclonal antibody 4G8 (mouse). As to the kind of experiment: SPR; On-Chip two-step: 60-fold dilution of 4G8 captured for 120 s on immobilised Abeta1-42 oligomers (CM5), then 1 uM SpA injected for 180 s; HBS-EP pH 7.4. (In general: In SPR one partner is held on a chip, and binding of the other changes the refractive index at the surface.)

The term stoichiometry N denotes a count of units in the complex or per binding partner. Regarding “Protein A from Staphylococcus aureus (from UniProt P38507 37-477) (natural protein)”, the Step 2/Step 1 RU ratio amounted to 0.178 and the stoichiometry N was found to be 0.636.
